Test: Aqueous solubility and appearance of immunogen solutions
Type: physicochemical
Conditions: for Comments (solubility): pH 5
Method: The immunogens of Example 1 (with either Pam3CSS- or Pam2CSS-lipopeptide caps) were poorly soluble in aqueous solvents. They were formulated for administration by dissolving them in dimethylsulphoxide (DMSO) and diluting with phosphate buffered saline to 5-10% DMSO. This yielded an opalescent somewhat turbid solution that was injected into animals.

CCCCCCCCCCCCCCCC(=O)OCC(CSCC(N)C(=O)N[C@@H](CO)C(=O)N[C@@H](CCCCN)C(=O)N[C@@H](CCCCN)C(=O)N[C@@H](CCCCN)C(=O)N[C@@H](CCCCN)C(=O)N[C@@H](CO)C(=O)N[C@@H](CCC(N)=O)C(=O)N[C@@H](Cc1ccc(O)cc1)C(=O)N[C@H](C(=O)N[C@@H](CCCCN)C(=O)N[C@@H](C)C(=O)N[C@@H](CC(N)=O)C(=O)N[C@@H](CO)C(=O)N[C@@H](CCCCN)C(=O)N[C@@H](Cc1ccccc1)C(=O)N[C@H](C(=O)NCC(=O)N[C@H](C(=O)N[C@H](C(=O)N[C@@H](CCC(=O)O)C(=O)N[C@@H](CC(C)C)C(=O)N[C@@H](CC(=O)O)C(=O)N[C@@H](C)C(=O)N[C@@H](CCC(=O)O)C(=O)N[C@@H](Cc1ccccc1)C(=O)N[C@@H](CCCNC(=N)N)C(=O)N[C@@H](Cc1c[nH]cn1)C(=O)N[C@@H](CC(=O)O)C(=O)N[C@@H](CO)C(=O)NCC(=O)N[C@@H](Cc1ccc(O)cc1)C(=O)N[C@@H](CCC(=O)O)C(=O)N[C@H](C(=O)N[C@@H](Cc1c[nH]cn1)C(=O)N[C@@H](Cc1c[nH]cn1)C(=O)N[C@@H](CCC(N)=O)C(N)=O)C(C)C)[C@@H](C)O)[C@@H](C)CC)[C@@H](C)CC)[C@@H](C)CC)OC(=O)CCCCCCCCCCCCCCC (stereo partly drawn) [SEQ ID NO: 30, Pam2C-SKKKKSQYIKANSKFIGITELDAEFRHDSGYEVHHQ-amide]
effect of addition of mannitol (isotonicity) on solubility in water for injection: did not impair solubility
solubility in aqueous solvents: much improved solubility
Comments (solubility) (Solution 2 mg/mL WFI): Soluble with 37 °C
Comments (solubility) (Solution 2 mg/mL-30 mg/mL mannitol): Soluble with 37 °C
Comments (solubility) (Solution 10 mg/mL WFI): Soluble with 37 °C
Comments (solubility) (Solution 10 mg/mL-30 mg/mL mannitol): Soluble with 37 °C
Comments (solubility) (Solution 30 mg/mL WFI): Soluble with 37 °C
Comments (solubility) (Solution 30 mg/mL-30 mg/mL mannitol): Soluble with 37 °C

From US20090123488A1, “Compositions and methods for the treatment and prophylaxis of Alzheimer's disease” (priority 2006, published 2009)
